Assay results as given in PubChem BioAssay AID624297 (National Center for Advancing Translational Sciences (NCATS), 2012).
Several values for one entry are separate records, joined by “and”; a condition that tells them apart may be missing. Entries that show only a call come without a potency. Equal entries are not always repeated. Only a part is listed here, and it is no random draw. Records with an inconclusive call do not appear. The source holds several records for some structures; these can differ, active in one and inactive in another. Activity calls are given as the source filed them. Calls come from the whole dose curve; as a rule, active = well fitted activation curve with a large enough effect; inconclusive = small, poorly fitted or top-dose-only effect; inactive = no such curve, though single readings can be large or run the other way.
Potency is the fitted concentration of half-maximal effect.

Assay: A quantitative high throughput screen for small molecules that induce DNA re-replication in SW480 colon adenocarcinoma cells. Note: nearly all actives have a fitted effect of over 55% in size.
Conditions: Hoechst DNA content imaging, 48 h; series mostly up to 46.1 µM
In the case of COc1ccc(C[C@H](C)NC[C@@H](O)c2ccc(O)c(NC=O)c2)cc1, the Potency is reported as “inactive and active: 2.82 µM”.
For COc1ccc(CC(C)NCC(O)c2ccc(O)c(NC=O)c2)cc1 (configuration not stated), the Potency was “inactive”.
